Measured values as given in publication PMC4210897, “Antimicrobial Activity of Peptides Derived from Olive Flounder Lipopolysaccharide Binding Protein/Bactericidal Permeability-Increasing Protein (LBP/BPI)” (Marine Drugs, 2014).

Test system: human red blood cells (RBCs, blood type O)
Experiment: Hemolytic activity assay
Assay type: cell-based
Conditions: 3% hematocrit, 60 min, 37 °C, even at 12.5 μg/mL
Experimental: The hemolytic activity of the peptides was determined using human red blood cells (RBCs, blood type O). The RBCs were collected from citric acid-treated blood by centrifugation at 3000× g for 5 min and washed three times with 10 mM PB (pH 7.4) containing 150 mM NaCl to remove the plasma and buffy coat. A suspension of 3% hematocrit in buffer with or without peptides was incubated for 60 min at 37 °C. Hemolysis was expressed as the hemoglobin content obtained from the absorbance of the supernatant at 405 nm after centrifugation at 3000× g for 5 min. A 100% hemolysis was determined based on hemoglobin release after the addition of 0.1% Triton X-100. The hemolysis percentage of the peptides was calculated using the following formula: % Hemolysis = [(Abs405nm in the peptide solution − Abs405nm in buffer)/(Abs405nm in 0.1% Triton X-100 − Abs405nm in buffer)] × 100
Hemolytic assays were performed in triplicate and the results were averaged.

With Piscidin 1 [reference compound] the “Hemolysis at 12.5 μg/mL” value was “strong hemolysis”.
